The list is not random: actives were taken first. Their share in the collection is about 16%.
uPA generation = inhibitors of cell surface uPA generation; cell surface uPA generation assay, qHTS; Potency, µM (titrated, usually from 38.3 µM), hits mostly inhibitors; 0.31% of 330,000 active; AID 540303; active = well fitted inhibition curve with a large enough effect; inconclusive = small, poorly fitted or top-dose-only effect; inactive = no such curve, though single readings can be large or run the other way; tested in mouse RAW 264.7 cells; also: nearly all actives have a fitted effect of over 55% in size
TDP1 cell noCPT = qHTS for Inhibitors of human tyrosyl-DNA phosphodiesterase 1 (TDP1): qHTS in cells in absence of CPT; 15% of 420,000 active; DT40 Tdp1-/- hTDP1 cells, no CPT, ATP luminescence, 48 h; Potency, µM (series often up to 46.2 µM), most hits filed as inhibitors; also: nearly all actives have a fitted effect of over 55% in size
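Readout: luminescence from CellTiter-Glo after 30 min in the dark at RT. Cells: DT40 Tdp1-/- with stable hTDP1, 400/well. Exposure: compounds alone, ≥48 hr, 37 °C.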
TDP1 inh = inhibitors of human tyrosyl-DNA phosphodiesterase TDP1; recombinant TDP1, AlphaScreen DNA substrate cleavage; Q9NUW8; Potency, µM (highest dose often 130 µM), most hits filed as inhibitors; 0.28% of 350,000 active; also: nearly all actives have a fitted effect of over 40% in size
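Here, a 5' biotin and 3' phosphotyrosine-FITC DNA oligonucleotide reports Tdp1 activity: intact substrate bridges AlphaScreen beads, while cleavage leaves a 3' phosphate and drops signal. All incubations at room temperature.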
TDP1 cell CPT = growth inhibition of DT40 Tdp1-/-;hTDP1 cells with camptothecin (screen for TDP1 inhibitors); chicken DT40 Tdp1-/-;hTDP1 cells + 20 nM CPT, ATP luminescence, 48 h; Potency, µM (doses to about 46.2 µM), actives largely listed as inhibitors; 12% of 420,000 active; also: nearly all actives have a fitted effect of over 55% in size
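Chicken DT40 Tdp1-/- cells stably complemented with human TDP1 were seeded at 400 cells/well in medium containing 20 nM camptothecin, exposed to pin-transferred compounds, and grown at 37 °C for at least 48 hr. Viability was read as ATP luminescence.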
miR-21 reporter = miR-21 reporter, rising signal; HeLa miR-21 FLuc reporter, luciferase, 48 h; Potency, µM (highest dose often 38.3 µM); 340,000 tested, under 10 active; AID 2288; active = well fitted rising curve with a large enough effect; inconclusive = small, poorly fitted or top-dose-only effect; inactive = no such curve, though single readings can be large or run the other way;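 further: miR-21 action dims this reporter so a rising signal means less miR-21 action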
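HeLa cells stably expressing CMV-driven firefly luciferase with a downstream miR-21 binding sequence, endogenously expressing miR-21, were treated with titrations (up to about 40uM final) for 48 hours at 37 degree Celsius. Luciferase luminescence was read after lysis.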
Of the large screens only hits and unclear results are named; the others gave an inactive call. Unless noted, calls follow the shape of the dose curve; as a rule, active = well fitted curve in the direction sought with a large enough effect; inconclusive = small, poorly fitted or top-dose-only effect, or another doubt; inactive = no such curve, though single readings can be large; an effect the other way counts as inactive or inconclusive.

CCN(CCO)c1ccc(N=Cc2c(O)n(C)c(=S)[nH]c2=O)cc1	TDP1 cell noCPT 10µM, TDP1 inh inconclusive, TDP1 cell CPT 12µM
COC(=O)C1=C(c2ccc(F)cc2OCc2ccccc2)C[C@@H]2CC[C@H]1N2C(=O)NCc1ccccc1C(F)(F)F	TDP1 cell noCPT inconclusive, TDP1 cell CPT inconclusive (no result: miR-21 reporter)
C/C(=N\N=C(N)N)c1ccccc1	TDP1 cell noCPT 18µM, TDP1 cell CPT inconclusive
C=CCC1(CCCCC)C(=O)NC(=S)NC1=O	none (no result: TDP1 inh, miR-21 reporter)
O=C(c1ccco1)N1CCC[C@@]2(CCN(Cc3ccncc3)C2)C1	none (no result: uPA generation, TDP1 inh, miR-21 reporter)
C=C(C)[C@H]1O[C@H]2CC[C@@]3(C)[C@@](O)(CC[C@H]4[C@@H]5OC(C)(C)[C@H]6C[C@@H]7C(=C)Cc8c(Cl)cc9[nH]c(c5c9c8[C@@]76O)[C@@]43C)[C@]23O[C@@H]3[C@H]1O	TDP1 cell noCPT 12µM, TDP1 cell CPT inconclusive (no result: uPA generation, miR-21 reporter)
CSc1ccccc1NC(=O)CN(C)CC(=O)c1[nH]c(C)c(C(C)=O)c1C	TDP1 cell noCPT 15µM, TDP1 cell CPT 15µM (no result: miR-21 reporter)
COC(=O)C1=C(c2ccc(F)cc2F)C[C@@H]2CC[C@H]1N2C(=O)NCC1CC1	TDP1 cell noCPT inconclusive (no result: miR-21 reporter)
Cc1cc2c(cc(C(=O)N3CCC(C(=O)NC4CCCC4)CC3)n2Cc2c(F)cccc2Cl)o1	TDP1 cell noCPT 23µM, TDP1 cell CPT 18µM, miR-21 reporter inconclusive (no result: TDP1 inh)
CC(=O)OC[C@H](N)C(=O)c1ccccc1	none (no result: uPA generation, TDP1 cell noCPT, TDP1 cell CPT, miR-21 reporter)
C=C1C(=O)[C@@]23C[C@H]4[C@@H]5[C@@]6(C)CCC[C@@]57[C@@H]2[C@@H](O)[C@@H]1C[C@H]3[C@H]7N4C6	uPA generation inconclusive, TDP1 cell noCPT 4.1µM, TDP1 cell CPT 4.6µM (no result: TDP1 inh, miR-21 reporter)
CN1CCN(S(=O)(=O)c2ccc(Cl)nc2)CC1	none
Cn1cc(C(=O)Cc2ccccc2)c2ccccc21	TDP1 cell noCPT inconclusive, TDP1 cell CPT 16µM
CCC1(c2ccccc2)C(=O)NC(=S)NC1=O	none (no result: TDP1 inh, miR-21 reporter)
CCOC(=O)C1=C[C@@H](OC(CC)CC)[C@H](NC(C)=O)[C@@H](N)C1	none (no result: uPA generation, TDP1 inh, miR-21 reporter)
O=C(COc1ccc(Br)cc1)N1CCN(Cc2c[nH]c3ccccc23)CC1	TDP1 cell noCPT 2.3µM, TDP1 cell CPT 1.3µM
O=C(COc1ccc2ccccc2c1)N1CCN(Cc2c[nH]c3ccccc23)CC1	TDP1 cell noCPT 5.2µM, TDP1 cell CPT 2.1µM
C[N+]1([O-])[C@@H]2CC[C@H]1CC(OC(=O)C(CO)c1ccccc1)C2 (stereo partly specified)	none (no result: uPA generation, TDP1 inh, miR-21 reporter)
Cc1nnc(NC(=O)c2cccn(Cc3ccc(Cl)cc3)c2=O)s1	none (no result: uPA generation)
Oc1ccc2c3c1O[C@H]1[C@@H](O)CC[C@]4(O)[C@H](C2)N(CC2CCC2)CC[C@@]314	none (no result: uPA generation, TDP1 cell noCPT, TDP1 cell CPT, miR-21 reporter)
CC(C)OC(=O)Cc1ccccc1	none (no result: miR-21 reporter)
COc1ccc(C=O)cc1OC	none (no result: uPA generation, TDP1 cell noCPT, TDP1 cell CPT, miR-21 reporter)
O=C1CN=C(c2ccccc2)c2cc(Cl)ccc2N1Cc1ccc(Cl)cc1	TDP1 cell noCPT 15µM, TDP1 cell CPT inconclusive (no result: uPA generation)
Cc1cccc(CN2C(=O)CN=C(c3ccccc3)c3ccccc32)c1	TDP1 cell noCPT 5.8µM, TDP1 cell CPT 5.8µM (no result: uPA generation)
CCN(CC)CCN1C(=O)CN=C(c2ccccc2F)c2cc(Cl)ccc21	TDP1 cell noCPT 27µM, TDP1 cell CPT inconclusive (no result: uPA generation, miR-21 reporter)
Cc1cccc(CN2C(=O)CN=C(c3ccccc3)c3cc(Cl)ccc32)c1	TDP1 cell noCPT 16µM, TDP1 cell CPT inconclusive (no result: uPA generation)
CN1C(=O)CN=C(c2ccccc2)c2cc(Cl)ccc21	TDP1 cell noCPT inconclusive, TDP1 cell CPT inconclusive (no result: uPA generation)
CCCNC(=O)N1[C@H]2CC[C@@H]1C(C(=O)OC)=C(c1ccccc1)C2	none (no result: TDP1 cell noCPT, TDP1 inh, miR-21 reporter)
COc1cccc(-c2nn(Cc3ccccc3)cc2C(=O)O)c1	none
C[C@@H]1O[C@H](C[N+](C)(C)C)CS1	none (no result: uPA generation, TDP1 cell noCPT, TDP1 cell CPT, miR-21 reporter)
CC1=C2C(=O)C3C(CC=C4CC(O)CCC43C)C2CCC12OC1CC(C)CNC1C2C (stereo unspecified)	none (no result: TDP1 inh)
Oc1cccc2cccnc12	TDP1 cell noCPT 2.6µM, TDP1 cell CPT 3.3µM (no result: uPA generation)
CN(C(=O)Oc1cccc2cccnc12)c1ccccc1	none
C#C[C@]1(O)CC[C@H]2[C@@H]3CCC4=CC(=O)CCC4(C)[C@H]3CCC21C (stereo partly specified)	none (no result: uPA generation, TDP1 cell noCPT, TDP1 cell CPT, miR-21 reporter)
CCOc1ccc(NC(=O)c2ccc(F)c(S(=O)(=O)NCc3ccc4c(c3)OCO4)c2)cc1	TDP1 cell noCPT inconclusive, TDP1 cell CPT inconclusive (no result: uPA generation)
